The chains behind the UniProt entries cited, without tags or fusion partners. Residues count along the entry.
UniProt P21836, 32-614 Y368A: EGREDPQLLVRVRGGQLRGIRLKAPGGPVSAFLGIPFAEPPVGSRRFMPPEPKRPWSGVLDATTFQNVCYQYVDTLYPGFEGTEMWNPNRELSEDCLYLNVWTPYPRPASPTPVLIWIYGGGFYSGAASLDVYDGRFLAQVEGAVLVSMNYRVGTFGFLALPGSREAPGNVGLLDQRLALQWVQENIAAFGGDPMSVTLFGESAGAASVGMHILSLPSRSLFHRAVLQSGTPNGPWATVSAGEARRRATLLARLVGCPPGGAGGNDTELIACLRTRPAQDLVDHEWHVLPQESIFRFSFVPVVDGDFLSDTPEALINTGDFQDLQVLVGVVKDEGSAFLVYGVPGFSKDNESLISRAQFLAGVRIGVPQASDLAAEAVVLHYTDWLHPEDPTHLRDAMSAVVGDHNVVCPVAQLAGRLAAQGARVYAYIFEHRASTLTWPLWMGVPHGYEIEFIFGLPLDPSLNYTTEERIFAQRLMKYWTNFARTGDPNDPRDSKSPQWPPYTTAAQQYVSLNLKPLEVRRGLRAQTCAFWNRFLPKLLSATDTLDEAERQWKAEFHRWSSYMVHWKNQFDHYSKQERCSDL

According to paper PMC3016896 (Journal of the American Chemical Society, 2010):

Target: mAChE mutant Tyr337Ala (Mus musculus, UniProt P21836, Y368A)
Conditions: for lower dissociation rate for Tyr337Ala compared with T. californica AChE: Tyr337Ala vs T. californica AChE (Phe for Tyr337); for lower dissociation rate for Tyr337Ala compared to mAChE: Tyr337Ala vs mAChE

Row | SMILES | greater affinity of the syn1 isomer compared with the anti1 isomer (Tyr337Ala mutant, syn1 vs anti1) | lower dissociation rate for Tyr337Ala compared with T. californica AChE | lower dissociation rate for Tyr337Ala compared to mAChE
1 | Nc1ccc2c(c1)c(-c1ccccc1)[n+](CCCCCCc1cnnn1CCNc1c3c(nc4ccccc14)CCCC3)c1cc(N)ccc21 [syn1, 3,8-diamino-6-phenyl-5-[6-[1-[2-[(1,2,3,4-tetrahydro-9-acridinyl)amino]ethyl]-1H-1,2,3-triazol-5syn-yl]hexyl]-phenanthridinium] | 4 fold | 85 fold | 550 fold
2 | Nc1ccc2c(c1)c(-c1ccccc1)[n+](CCCCCCc1cn(CCNc3c4c(nc5ccccc35)CCCC4)nn1)c1cc(N)ccc21 [anti1, 3,8-diamino-6-phenyl-5-[6-[1-[2-[(1,2,3,4-tetrahydro-9-acridinyl)amino]ethyl]-1H-1,2,3-triazol-4anti-yl]hexyl]-phenanthridinium] |  | 350 fold | 3000 fold
